# Reference: PubChem BioAssay AID436 (Emory University Molecular Libraries Screening Center, 2006)
# By UniProt entry, the sequences of proteins in these tests, tags left out.
# UniProt Q92560, whole entry: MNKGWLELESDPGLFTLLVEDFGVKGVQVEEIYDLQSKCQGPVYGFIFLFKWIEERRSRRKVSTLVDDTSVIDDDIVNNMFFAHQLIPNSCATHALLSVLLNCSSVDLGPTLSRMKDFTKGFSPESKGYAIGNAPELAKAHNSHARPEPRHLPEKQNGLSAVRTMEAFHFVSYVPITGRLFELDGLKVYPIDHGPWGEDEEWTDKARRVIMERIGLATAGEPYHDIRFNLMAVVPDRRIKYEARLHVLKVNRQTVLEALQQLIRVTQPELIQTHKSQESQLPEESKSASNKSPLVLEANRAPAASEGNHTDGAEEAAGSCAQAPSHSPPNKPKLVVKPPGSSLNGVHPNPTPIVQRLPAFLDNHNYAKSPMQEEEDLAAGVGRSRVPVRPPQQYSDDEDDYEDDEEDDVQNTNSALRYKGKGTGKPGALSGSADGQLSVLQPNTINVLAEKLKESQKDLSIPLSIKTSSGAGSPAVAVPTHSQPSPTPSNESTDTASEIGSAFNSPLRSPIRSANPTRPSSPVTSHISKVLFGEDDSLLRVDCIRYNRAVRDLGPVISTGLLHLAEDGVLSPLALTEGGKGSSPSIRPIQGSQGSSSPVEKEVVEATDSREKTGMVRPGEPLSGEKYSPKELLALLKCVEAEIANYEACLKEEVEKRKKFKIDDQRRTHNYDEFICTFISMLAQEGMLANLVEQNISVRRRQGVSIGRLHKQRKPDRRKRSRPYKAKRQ
# Only a part is listed here, and it is no random draw. Active and inactive are the calls of the source.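 The calls were made as follows: active = activity remaining at or below 50% of control, provided the compound also passes the data quality filters; inactive = the rest, including low values that fail the filters.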
# Target: Ubiquitin carboxyl-terminal hydrolase BAP1 (Homo sapiens) (UniProt Q92560)
# Experiment: BAP1 ubiquitin hydrolase activity blockers – biochemical, Ub-AMC fluorescence, kinetic, primary screen (AID 436);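 also: 100% = DMSO wells rate and 0% = substrate alone blank rate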
# Conditions: recombinant BAP1, Ub-AMC hydrolysis fluorescence kinetic; at 20 µM; hits give low values
row,Structure (SMILES),activity remaining (% of control)
1,Cc1ccc(C)c(NP(C)(=O)Oc2ccccc2)c1 (centres undefined),inactive: 98%
2,Cc1nc2ccc3ccccc3c2s1.O=[N+]([O-])c1cc([N+](=O)[O-])c(O)c([N+](=O)[O-])c1,inactive: 113%
3,CCOP(C)(=S)SCC(=O)NC(C)C(=O)O (centres undefined),inactive: 102%
4,CP(=S)(Nn1cnnc1)Oc1ccccc1 (centres undefined),inactive: 99.8%
5,Cc1ccc(NP(C)(=O)Oc2ccccc2)c(C)c1 (centres undefined),inactive: 85%
6,COc1ccccc1OP(C)(=O)Nc1ccc(C)cc1 (centres undefined),inactive: 78%
7,CP(=O)(Nc1ccccn1)Oc1ccccc1 (centres undefined),inactive: 110%
8,Cn1cc([N+](=O)[O-])nc1[N+](=O)[O-],inactive: 129%
9,COc1ccccc1OP(C)(=O)Nc1ccc(C)c(C)c1 (centres undefined),inactive: 107%
10,Cc1nc2ccc3ccccc3c2o1.O=[N+]([O-])c1cc([N+](=O)[O-])c(O)c([N+](=O)[O-])c1,inactive: 75.3%
11,N#[O+].[C-]#N.[C-]#N.[C-]#N.[C-]#N.[C-]#N.[Fe+2].[Na+].[Na+],inactive: 94%
12,CCN(CC)CC(O)COC(=O)C(O)(c1ccccc1)C1CCCCC1 (centres undefined),inactive: 160%
13,CP(=O)(Oc1ccccc1)N1CCOC1=O (centres undefined),inactive: 104%
14,COc1ccccc1OP(C)(=O)Nc1c(C)n(C)n(-c2ccccc2)c1=O (centres undefined),inactive: 102%
15,CCOP(C)(=S)SCC(=O)NC(C)(CC)C(=O)O (centres undefined),inactive: 95.2%
16,CP(=O)(Nc1ccc2c(c1)OCCO2)Oc1ccccc1 (centres undefined),inactive: 98.2%
17,Cc1ccccc1NP(C)(=O)Nc1ccccc1C,inactive: 101%
18,CN(C)CCOC(=O)C(O)(c1ccccc1)C1CCCCC1 (centres undefined),inactive: 106%
19,CP(=O)(Nc1ccccc1F)Oc1ccccc1 (centres undefined),inactive: 113%
